Results on one compound are retold here after ChEMBL document CHEMBL4715860, “4-(Difluoromethyl)-5-(4-((3R,5S)-3,5-dimethylmorpholino)-6-((R)-3-methylmorpholino)-1,3,5-triazin-2-yl)pyridin-2-amine (PQR626), a Potent, Orally Available, and Brain-Penetrant mTOR Inhibitor for the Treatment of Neurological Disorders” (J Med Chem, 2020).

The nature of the data set: Metabolic stability in human hepatocytes assessed as half-life at 5 uM incubated for 3 hrs by LC-MS analysis. The format is ADME, cell-based, Hepatocyte. In a few lines:
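Cryopreserved primary hepatocytes in suspension from CD-1 mouse, Sprague-Dawley rat, Beagle dog and human. Compound at 5 μM final (from 10 mM DMSO stock). Samples taken at 0, 15, 60, 90 and 180 min and quenched with ACN plus internal standard. Parent quantified by LC-MS. Hepatocyte-free medium incubations served as negative control; 7-ethoxycoumarin as positive control. Duplicate; CLint per 10^6 cells and t1/2.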

For orientation: half-life means the time needed for the level to fall by half in the phase considered.

Take `C[C@@H]1COCCN1c1nc(-c2cnc(N)cc2C(F)F)nc(N2[C@H](C)COC[C@@H]2C)n1`: the half-life at 5 µM is 2.73 h.
